Values quoted from earlier work in patent US12246067B2, “Neoantigens and uses thereof” (priority 2018, dated 2025).

Test system: humans
Settings: more than 25 clinical trials; cited from earlier work

## poly-ICLC
  Toxicity profile: relatively benign toxicity profile
